From patent US20120059036A1, “METHOD FOR REDUCING THROMBOCYTOPENIA AND THROMBOCYTOPENIA-ASSOCIATED MORTALITY” (priority 2008, published 2012)

System: patients experiencing ST-segment elevation myocardial infarction (STEMI)
Test: MULTISTRATEGY safety analysis: bleeding, transfusion, thrombocytopenia and thrombocytopenia-associated mortality
Conditions: At 30 d
Experimental: The inclusion criteria were (1) chest pain for longer than 30 minutes with an electrocardiographic ST-segment elevation of 1 mm or greater in two or more contiguous electrocardiogram leads, or with a new left bundle-branch block, and (2) admission either within 12 hours of symptom onset or between 12 and 24 hours after onset with evidence of continuing ischemia. The exclusion criteria included administration of fibrinolytics in the previous 30 days, major surgery within 15 days, and active bleeding or previous stroke in the last six months. Immediately after eligibility criteria were met and before the visualization of coronary arteries through angiography, the treating physician at each investigational site performed open-label assignments of study treatments via sealed envelopes.
This type of regimen is described in U.S. Pat. No. 6,770,660. Abciximab was administered in a 0.25 mg/kg bolus, followed by 0.125 μg/kg/min continuous infusion for 12 hours. The administration of both drugs began at first medical contact, before arterial sheath insertion. Heparin was given at 40 to 70 U/kg, targeting an activated clotting time of at least 200 seconds. Patients received aspirin (160-325 mg orally or 250 mg intravenously, followed by 80-125 mg/d orally indefinitely) and clopidogrel (300 mg orally and then 75 mg/d for at least three months).
The data for all patients with primary end-point events were reviewed by an independent adjudication committee whose members were blinded to treatment assignments. Events adjudication was performed separately by two members, and in case of disagreement, the opinion of the third member was obtained and the final decision taken by consensus. The committee was also responsible for the adjudication of all clinical events according to the Academic Research Consortium.^18
Discrete data were summarized as frequencies, and comparisons were made with the likelihood-ratio χ^2 test or Fisher exact test. Continuous data were expressed as mean (SD) or median and interquartile range according to their distribution; comparisons were made with a one-way analysis of variance or the Kruskal-Wallis test.

SMILES: CCCCS(=O)(=O)N[C@@H](Cc1ccc(OCCCCC2CCNCC2)cc1)C(=O)O.Cl.O [Tirofiban Plus Uncoated Stent]
- Major bleeding: (2.7) %
- Minor bleedng: (5.9) %
- Moderate thrombocytoperia (<100000 cells/mm^3): (0.5) %
- Red blood cells transfusion ≧1 Units: (4.8) %
- Red blood cells transfusion ≧2 Units: (3.2) %
- Severe thrombocytoperia (<50000 cells/mm^3): (1.1) %
- Major bleeding (number of patients): 5 No.
- Minor bleedng (number of patients): 11 No.
- Red blood cells transfusion ≧1 Units (number of patients): 9 No.
- Red blood cells transfusion ≧2 Units (number of patients): 6 No.
